This passage reports Kd results from ChEMBL document CHEMBL4219039, “Group-Based Optimization of Potent and Cell-Active Inhibitors of the von Hippel-Lindau (VHL) E3 Ubiquitin Ligase: Structure-Activity Relationships Leading to the Chemical Probe …” (J Med Chem, 2018).

Amino acid sequences for entries named in this document (tags omitted).
UniProt P40337, whole entry, looked up: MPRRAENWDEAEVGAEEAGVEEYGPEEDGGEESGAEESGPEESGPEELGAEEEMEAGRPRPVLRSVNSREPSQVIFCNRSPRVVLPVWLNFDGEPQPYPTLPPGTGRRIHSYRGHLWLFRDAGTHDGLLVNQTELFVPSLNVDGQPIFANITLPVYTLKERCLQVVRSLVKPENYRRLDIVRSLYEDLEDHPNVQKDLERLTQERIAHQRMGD

For the assay, the target named is Von Hippel-Lindau disease tumor suppressor/Elongin B/Elongin C (Homo sapiens, UniProt P40337). The assay can be described thus: Displacement of FAM-labeled HIF-1alpha peptide from VBC (unknown origin) by fluorescence polarization assay.
In turn, `CC(=O)N[C@@H](C)C(=O)N1C[C@H](O)C[C@H]1C(=O)NCc1ccc(-c2scnc2C)cc1` gave a Kd of 760 nM.
Regarding `CC(=O)N(C)[C@H](C(=O)N1C[C@H](O)C[C@H]1C(=O)NCc1ccc(-c2scnc2C)cc1)C(C)(C)C`, the affinity, expressed as Kd, was 5500 nM.
Then `CCC(=O)N[C@H](C(=O)N1C[C@H](O)C[C@H]1C(=O)NCc1ccc(-c2scnc2C)cc1)C(C)(C)C`, with 350 nM.

One may read the Kd as the concentration at which binding is half-saturated. A low value points to tighter binding.
